Laboratory results published in PubChem BioAssay AID624037 (The Scripps Research Institute Molecular Screening Center, 2012).
The list shows a part of the results, in another mix than the full data. Active and inactive are the calls of the source.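 How the source made its calls: active means activation above the run's mean over test compounds plus 3 SD (cut at about 23% in these data); inactive means the rest.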

Amino acid sequences for entries named in this document (tags omitted).
UniProt P08912, whole entry, looked up: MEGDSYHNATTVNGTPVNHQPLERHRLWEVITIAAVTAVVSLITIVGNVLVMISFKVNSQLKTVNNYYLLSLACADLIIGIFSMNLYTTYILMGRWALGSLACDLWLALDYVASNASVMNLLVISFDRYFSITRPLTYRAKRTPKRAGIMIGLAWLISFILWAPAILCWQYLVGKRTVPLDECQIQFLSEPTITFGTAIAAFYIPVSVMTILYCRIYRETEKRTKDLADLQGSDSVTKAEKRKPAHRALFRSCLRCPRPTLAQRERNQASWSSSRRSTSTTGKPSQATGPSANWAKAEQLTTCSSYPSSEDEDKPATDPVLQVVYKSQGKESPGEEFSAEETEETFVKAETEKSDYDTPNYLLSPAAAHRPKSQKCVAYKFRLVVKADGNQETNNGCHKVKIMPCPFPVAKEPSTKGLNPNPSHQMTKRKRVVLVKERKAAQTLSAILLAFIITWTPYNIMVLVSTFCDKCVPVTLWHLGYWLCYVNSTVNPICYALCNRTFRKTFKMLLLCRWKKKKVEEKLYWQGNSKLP

These molecules were tested against Muscarinic acetylcholine receptor M5 (Homo sapiens) (UniProt P08912) (assay: CHRM5 activators raising intracellular calcium – CHO-K1 cells, Fluo-8 calcium fluorescence, primary screen (AID 624037;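 further: signal is peak over basal fluorescence ratio across the kinetic read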)). Settings: CHO-K1 hM5 cells, at 3 µM, hits give high values, 0% DMSO wells, 100% maximal acetylcholine response.
In the case of `O=C(Nc1cc([As](=O)(O)O)ccc1O)c1ccccc1`, the activation is reported as inactive: 1.25%. With `O=P1(N(CCCl)CCCl)OCCCS1` (configuration not stated) the activation was inactive: 7.11%. With `COC(=O)C1(C)COP(=O)(Nc2ccccc2)OC1` (configuration not stated) the activation was inactive: 0.16%. `O=[N+]([O-])c1cccc(NC2=NCC(CBr)S2)c1` (configuration not stated) was tested, and the activation was inactive: -3.79%. For `O=C(O)CNc1ccc([As](=O)(O)O)cc1`, the activation was inactive: -3.19%. For `C/C=C1/C[C@@H](C)[C@](O)(CO)C(=O)OCC2=CCN3CC[C@@H](OC1=O)[C@@H]23`, the activation was inactive: -0.69%. With `CC(C)(C)C(=O)NC(Sc1ccncn1)C(Cl)(Cl)Cl` (configuration not stated) the activation was inactive: -1.61%. With `O=[N+]([O-])c1ncn(CCn2ncnc2[N+](=O)[O-])n1` the activation was inactive: -4.71%. `O=[N+]([O-])c1cccc2n[nH]nc12` was tested, and the activation was inactive: -5.55%. For `CC(=O)N1C2C3N(C(C)=O)C1C1N(C(C)=O)C(C(N1C(C)=O)N3C(C)=O)N2C(C)=O`, the activation was inactive: 0.67%. For `Cc1ccc(NP(=O)(Oc2ccccc2)Oc2ccccc2)nc1`, the activation was inactive: -4.58%. With `CCc1nc2c(n1)c1c(non1O)c1c2no[n+]1[O-]` the activation was inactive: 6.79%. With `O=[N+]([O-])c1cc([N+](=O)[O-])c(CCNc2ccccc2)c([N+](=O)[O-])c1` the activation was inactive: -4.35%. In the case of `COc1ccc(C2=NCC(CBr)S2)cc1` (configuration not stated), the activation is reported as inactive: -1.59%. For `CC(C)c1nc(Nc2ccccc2)n(P(=O)(N(C)C)N(C)C)n1`, the activation was inactive: 0.36%. With `CC(C)=N/N=C(\N)N[N+](=O)[O-]` the activation was inactive: -3.26%. For `CN(C)C(=O)OCCc1n(C)cc[n+]1C`, the activation was inactive: -7.13%. `CC1CCN(C(=O)Oc2c(Cl)cc(Cl)c3cccnc23)CC1` was tested, and the activation was inactive: -3.34%. `c1cc(-c2nn[nH]n2)ccc1-c1nn[nH]n1` was tested, and the activation was inactive: 0.99%. `Nc1ccc([As](=O)(O)c2ccc(N)cc2)cc1` was tested, and the activation was inactive: 2.37%. With `C[N+]1=C2C=CC=CC=C2SC12C([N+](=O)[O-])=CC([N+](=O)[O-])=C[C-]2[N+](=O)[O-]` (configuration not stated) the activation was inactive: 2.29%. In the case of `CCN(/C(=N/P(=O)(N1CCOCC1)N1CCOCC1)N1CCOCC1)c1ccc(OC)cc1`, the activation is reported as inactive: -2.92%.
